Earlier results, collected in US10927398B2, “Compositions for CYP450 phenotyping using saliva samples” (Concordia University, Inc., priority 2015, dated 2021).
Only a part of the results on these compounds is given; other tests are left out.

What was measured:
[1] = tested on: plasma protein; conditions: Table of Exemplary Drugs, CYP3A4; cited from earlier work
[2] = Table of Exemplary Drugs, CYP3A4; cited from earlier work

Compound	PLASMA PROTEIN BINDING [1] [%]	HALF-LIFE [2] [h]
CCC(=O)N(c1ccccc1)C1(COC)CCN(CCc2cccs2)CC1	93	2.5
CCC(=O)N(c1ccccc1)C1(COC)CCN(CCn2nnn(CC)c2=O)CC1	92	1.5
